Values of other authors in patent US10325677B2, “Apparatus and computerized method for optimizing or generating a sigma profile for a molecule” (Texas Tech University System, priority 2014, dated 2019).

Conditions: published in the literature

Compound | NRTL-SAC Conceptual Segment Number X | NRTL-SAC Conceptual Segment Number Y^+ | NRTL-SAC Conceptual Segment Number Y^− | NRTL-SAC Conceptual Segment Number Z
CC(=O)Oc1ccccc1C(=O)O [Aspirin, aspirin] | 0.103 | 1.160 | 0 | 0.777
CC[C@H](C)C(=O)O[C@H]1C[C@@H](C)C=C2C=C[C@H](C)[C@H](CC[C@@H]3C[C@@H](O)CC(=O)O3)[C@H]21 [Lovastatin, lovastatin] | 0.175 | 0.548 | 0 | 0.882
CC(=O)Nc1ccc(O)cc1 [Paracetamol, paracetamol] | 0.498 | 0.162 | 0.487 | 1.270
